Source: patent US20130011378A1, “Stable formulations of a hyaluronan-degrading enzyme” (priority 2011, published 2013)

Tests used:
[1] = molecular target: T1, rHuPH20 (Homo sapiens, UniProt P38567); test: Determination of hyaluronidase activity of rHuPH20, turbidimetric assay (Example 2, variant not specified); format: biochemical; settings: stabilizer screening in rHuPH20/insulin formulation, semi-quantitative in comparison with NaCl; samples incubated at 30° C. for about one week
T1 construct: made in house; host or cells: CHO cells (DG44 CHO, HZ24 plasmid, clone 2B2)
T1 sequence (P38567 36-482): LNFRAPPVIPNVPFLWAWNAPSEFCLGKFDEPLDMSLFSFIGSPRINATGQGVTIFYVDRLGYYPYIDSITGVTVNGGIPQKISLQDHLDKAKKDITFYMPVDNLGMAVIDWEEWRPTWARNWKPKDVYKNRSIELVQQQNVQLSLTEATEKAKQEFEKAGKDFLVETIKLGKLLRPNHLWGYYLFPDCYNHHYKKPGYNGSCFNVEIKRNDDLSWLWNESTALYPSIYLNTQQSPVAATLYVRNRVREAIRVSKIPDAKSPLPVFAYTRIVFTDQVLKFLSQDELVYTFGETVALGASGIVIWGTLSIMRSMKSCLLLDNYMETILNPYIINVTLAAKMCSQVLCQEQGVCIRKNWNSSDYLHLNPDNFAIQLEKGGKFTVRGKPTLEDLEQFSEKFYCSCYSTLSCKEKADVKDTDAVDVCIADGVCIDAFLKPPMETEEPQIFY

[2] = RP-HPLC: insulin apparent solubility / percent recovery; settings: stabilizer screening in rHuPH20/insulin formulation, semi-quantitative in comparison with NaCl, samples stored at 5° C.
Protocol: Apparent solubility was measured as the percent insulin recovery as compared to the initial formulations/conditions.
Samples were prepared by withdrawing 100 μL from each vial at every time point and centrifuging prior to loading. Samples were stored in an autosampler at 4° C. prior to use, and were considered stable for 3 days after preparation. All samples were tested in duplicate.
For insulin, 20 μL was injected for each HPLC run.
To determine the apparent solubility, the peak area of insulin/insulin analog main peak and desamido peak were integrated and combined together to calculate the percentage relative to the standards. […] The data were processed using Design-Expert® 7.0 (StatEase) and the “historical data” feature. Insulin percent purity was expressed as the percent of main insulin versus all insulin species.

## Human serum albumin
[1]
  Effect on rHuPH20 enzymatic activity: No effect
[2]
  Effect on insulin solubility: No effect
